Drawing on PubChem BioAssay (NCI), this text covers growth inhibition for 19 compounds.

Where “and” joins values, the source holds several entries; their conditions need not be identical. Equal values may be shown once. The entries are a selection whose mix differs from that of the whole data set. Calls of active or inactive are those of the source. Cut-off read from the data, not from the text of the source: active = growth inhibition above about 70%; inactive = the rest.

Test [1] can be described thus: NCI Yeast Anticancer Drug Screen. Data for the rad50 strain (AID 155).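 Note: 0% = growth of vehicle-only cultures of the same strain.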 The following applies: S. cerevisiae rad50 strain growth inhibition; at 50.0 µM; stronger effect = higher value.
A short description of test [2]: NCI Yeast Anticancer Drug Screen. Data for the mec2-1 strain (AID 157). The following applies: S. cerevisiae mec2-1 strain, at 50.0 µM, stronger effect = higher value.
Test [3] is described as follows: NCI Yeast Anticancer Drug Screen. Data for the sgs1 mgt1 strain (AID 161).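 Note: 0% = growth of cultures given vehicle only.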 The settings on record: S. cerevisiae sgs1 mgt1 strain, at 50.0 µM, stronger effect = higher value.
Test [4] in a line: NCI Yeast Anticancer Drug Screen. Data for the cln2 rad14 strain (AID 165).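 Note: 0% = growth equal to vehicle treated cultures.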 The following applies: S. cerevisiae cln2 rad14 strain, at 50.0 µM, stronger effect = higher value.
A short description of test [5]: NCI Yeast Anticancer Drug Screen. Data for the bub3 strain (AID 167). The settings on record: S. cerevisiae bub3 mutant strain, at 50.0 µM, stronger effect = higher value.
A short description of test [6]: NCI Yeast Anticancer Drug Screen. Data for the mlh1 rad18 strain (AID 175). The settings on record: S. cerevisiae mlh1 rad18 strain growth inhibition; at 50.0 µM; stronger effect = higher value.

As to `CCOP1(=O)N=C(NC2=NC(C(F)(F)F)(C(F)(F)F)OC(C(F)(F)F)(C(F)(F)F)O2)N(C)C1(C)C` (centres undefined), the growth inhibition is inactive: 3.4% in test [1]; inactive: -12.1% in test [2]; inactive: -4.45% in test [3]; inactive: 12.6% in test [4]; inactive: -8.25% in test [5]; inactive: 3.7% in test [6].
For `C=CCC[P+](CC)(c1ccccc1)c1ccccc1`, the growth inhibition is inactive: 51.2% in test [1]; inactive: 20.6% in test [2]; inactive: -2.65% in test [3]; inactive: -29.6% in test [4]; inactive: 15.6% in test [5]; inactive: 6.3% in test [6].
Take `CCC(O)(C(=O)OCC1=CC[N+]2([O-])CC[C@@H](OC(=O)Nc3ccccc3)C12)c1ccc(Cl)cc1` (some centres undefined): the growth inhibition in test [1] is inactive: 64.5%; in test [2] it was active: 83.5%; in test [3] it was active: 75.5%; in test [4] it was active: 77.2%; in test [5], inactive: 40.3%; in test [6], active: 77.8%.
As for `CCN(CC)CC(O)c1ccc2c(ccc3ccccc32)c1` (centres undefined), the growth inhibition in test [1] is inactive: 36%; in test [2] it was inactive: 9.25%; in test [3], inactive: 23.6%; in test [4], inactive: 5.15%; in test [5], inactive: 2.55%; in test [6], inactive: 29.5%.
For the compound `BrC1C2(SCCS2)[C@@H]2C[C@@H](c3ccccc32)C12SCCS2` (some centres undefined), the growth inhibition in test [1] was inactive: 22.9%; in test [2], inactive: 0.75%; in test [3], inactive: -8.3%; in test [4], inactive: -10.3%; in test [5], inactive: 12%; in test [6], inactive: 6.6%.
Consider `[N-]=[N+]=Nc1ccc([N+](=O)[O-])c(C(=O)O)c1`, for which the growth inhibition in test [1] was inactive: -4.75%; in test [2], inactive: 12.4%; in test [3], inactive: -1.3%; in test [4], inactive: -73.7%; in test [5], inactive: 3.55%; in test [6], inactive: 0.9%.
As to `O=C1CN(CCCl)CC(=O)N2Cc3ccccc3CN12`, the growth inhibition in test [1] is inactive: -10.4%; in test [2] it was inactive: 13%; in test [3] it was inactive: -11.9%; in test [4] it was inactive: -3.25%; in test [5] it was inactive: -1.55%; in test [6] it was inactive: -15.7%.
For `C[n+]1cc(-c2ccccc2)cc2ccccc21`, the growth inhibition in test [1] is inactive: 53.5%; in test [2] it was inactive: -2.3%; in test [3], inactive: 38.9%; in test [4], inactive: 16.1%; in test [5], inactive: 0.05%; in test [6] it was inactive: 24.4%.
As to `CC(Cl)C[N+](C)(Cc1ccccc1[N+](=O)[O-])CC(C)Cl` (centres undefined), the growth inhibition in test [1] is inactive: -33.4%; in test [2] it was inactive: -6.9%; in test [3] it was inactive: -12.3%; in test [4], inactive: -8.95%; in test [5] it was inactive: 10.8%; in test [6], inactive: -19.2%.
Turning to `Cc1ccc2c(c1)C[P+](c1ccccc1)(c1ccccc1)CC2C` (centres undefined), the growth inhibition in test [1] was inactive: 54.5%; in test [2], inactive: -3.5%; in test [3], inactive: 36.2%; in test [4], inactive: 0.05%; in test [5] it was inactive: 25.1%; in test [6], inactive: 15.1%.
For `O=P1(N(CCCl)CCCl)NC(c2ccccc2)CCO1` (centres undefined), the growth inhibition is inactive: -15.4% and inactive: -16.8% in test [1]; inactive: -9.15% and inactive: 27.9% in test [2]; inactive: -18.4% and inactive: 4.15% in test [3]; inactive: -7.05% and inactive: 21.4% in test [4]; inactive: -6% and inactive: -11.1% in test [5]; inactive: -40% and inactive: -50.1% in test [6].
With `Cc1ccc(OP(=S)(Cl)Cl)cc1`, the growth inhibition in test [1] is inactive: -11.1%; in test [2], inactive: -19.1%; in test [3], inactive: -11.4%; in test [4] it was inactive: -6.05%; in test [5], inactive: 21.1%; in test [6], inactive: -0.7%.
For `C[N+]([O-])(CCCl)CCCn1ccnc1[N+](=O)[O-]` (centres undefined), the growth inhibition was inactive: 6.5% in test [1]; inactive: -24.8% in test [2]; inactive: -10.6% in test [3]; inactive: 3% in test [4]; inactive: 13.2% in test [5]; inactive: 5.55% in test [6].
Take `Cc1c([N+](=O)[O-])c2c([N+](=O)[O-])cc([N+](=O)[O-])cc2n1C`: the growth inhibition in test [1] was inactive: 32.3%; in test [2], inactive: 5.85%; in test [3], inactive: 36.1%; in test [4], inactive: 15%; in test [5], inactive: 18.9%; in test [6], inactive: 54.3%.
`S=P1(Oc2ccccc2)NNP2(=NP(Cl)(Cl)=NP(Cl)(Cl)=N2)NN1` (centres undefined): the growth inhibition in test [1] was inactive: 7.4%; in test [2], inactive: -6%; in test [3], inactive: -27.3%; in test [4] it was inactive: -24.7%; in test [5], inactive: 3.3%; in test [6], inactive: -1.35%.
Regarding `CCOC1=NC(C(F)(F)F)(C(F)(F)F)N=C(NC2=NP(=O)(OCC)C(C)(C)N2C)O1` (centres undefined), the growth inhibition in test [1] is inactive: -12.8%; in test [2], inactive: -12.8%; in test [3] it was inactive: 7.8%; in test [4], inactive: -2.6%; in test [5], inactive: -9.15%; in test [6], inactive: -15.9%.
As for `CCOC(=O)NNC(=S)NP(=O)(NC(=S)NNC(=O)OCC)NC(=S)NNC(=O)OCC`, the growth inhibition in test [1] was inactive: 23.4%; in test [2] it was inactive: 11.3%; in test [3], inactive: -4.45%; in test [4] it was inactive: -1.75%; in test [5], inactive: 1.15%; in test [6] it was inactive: 2.8%.
In the case of `CC1(CCC2(C)N=C(NN=C(CCl)CCl)SP2(=O)Nc2ncccn2)N=C(NN=C(CCl)CCl)SP1(=O)Nc1ncccn1` (centres undefined), the growth inhibition in test [1] is inactive: -20.7%; in test [2], inactive: -31.6%; in test [3], inactive: -2.2%; in test [4], inactive: -38.2%; in test [5] it was inactive: -41.6%; in test [6] it was inactive: -35.6%.
With `O=[N+]([O-])c1ccc(Oc2cccc(Oc3ccc([N+](=O)[O-])cc3[N+](=O)[O-])c2)c([N+](=O)[O-])c1`, the growth inhibition in test [1] was inactive: 10.9%; in test [2] it was inactive: -5.85%; in test [3] it was inactive: 7.75%; in test [4], inactive: -2.85%; in test [5], inactive: 6.5%; in test [6], inactive: 8.25%.
